Earlier results, collected in patent publication US20130287898A1, “Trivalent Chromium and Boron Fortifying Composition, a Hydration Supplement, and Process for Preparing the Same” (priority 2010, published 2013).

Assays:
[1] = oral, compared to the equivalent amount of boron citrate
[2] = Chromium 454: room temperature

Calcium Fructoborate Ca(C6H10O6BO)2X3X5H2O [FruiteX-B]
relative systemic availability of boron ([1]; 43 microgram amount of boron): 110% | relative systemic availability of boron ([1]; 1000 microgram amount of boron): 160% | solubility in water [2]: water-soluble

Like-named read-outs stand apart in the source and are kept apart here.
